Apparent affinities of Ab-95 variants for a coronavirus HR2 peptide

Values reported by Engelhart et al. 2022, doi:10.1038/s41597-022-01779-4 (FLAb copy).

Target: peptide PDVDLGDISGINAS, taken from heptad repeat 2 (HR2) of SARS-CoV-2 spike.

Each scFv is VH, a 15-residue (Gly4Ser)3 linker, VL, as in the parent Ab-95, and differs from it in the CDRs of the light chain only.
VH: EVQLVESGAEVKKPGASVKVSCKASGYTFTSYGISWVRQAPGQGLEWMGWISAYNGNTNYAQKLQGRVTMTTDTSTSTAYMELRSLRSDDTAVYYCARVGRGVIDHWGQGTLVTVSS
VL: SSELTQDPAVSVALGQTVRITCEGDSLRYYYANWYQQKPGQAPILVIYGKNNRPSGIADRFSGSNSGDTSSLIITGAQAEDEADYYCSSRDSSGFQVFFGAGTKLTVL

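The parent was found by panning a naive human phage display library on the peptide. In library AAYL52, one, two or three CDR residues were substituted; doubles and triples were drawn at random. AlphaSeq pools MATa yeast showing the antibodies with MATalpha yeast showing the peptide. Pairs that bind mate more often; barcode pairs of the diploids are counted by sequencing. A regression on co-assayed BCL2-family reference pairs converts the normalised counts of each replicate to an apparent Kd. The assay was run in three technical replicates.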

Each variant is given by its three light chain CDRs, as the data file delimits them; those of the parent are EGDSLRYYYAN, GKNNRPS, SSRDSSGFQVF. Kd is apparent (estimated from mating counts) and averaged on the log scale over replicates with a signal. Smaller is tighter. Where no diploid with the target was found in any replicate, the entry reads "not detected": below detection, most likely a poor binder, though not proof of it. In this assay the parent's reference entry averaged 200 nM; its copy inside this library read 180 nM. Background: pairings of library AAYL52 with three empty control strains gave a value in 28% of cases (median 8.2 µM, 5th percentile 800 nM). Values in that range, when seen in few replicates, are hard to tell from nonspecific mating.

CDR-L1 | CDR-L2 | CDR-L3 | Kd | seen in
EGDSLRYYDAN | SKNNRPS | SSRASSGFQVF | 41 nM | 3 of 3
EGDSLRYYYAN | GKNNKPS | SSRDSSGFIVF | 19 µM | 1 of 3
EGDSLRYYYAN | GKNNRPS | SSTDSSGFQLF | 2.0 µM | 2 of 3
EGDSLIYYDAN | GKRNRPS | SSRDSSGFQVF | 1.0 µM | 3 of 3
TGDSLRYYYAN | GKNNIPS | SSRDSSDFQVF | 270 µM | 1 of 3
HGDELRYSYAN | GKNNRPS | SSRDSSGFQVF | 11 nM | 3 of 3
EGDSIRYLYAN | GKNNRPS | SSRDASGFQVF | 2.1 µM | 3 of 3
EGDSQRYYYAG | GKNNRPS | SSRDSSRFQVF | 24 µM | 3 of 3
EGDSLAYYYAN | GKNNRPS | SIRDSSGEQVF | 3.8 µM | 1 of 3
VGDSLRIYFAN | GKNNRPS | SSRDSSGFQVF | 640 nM | 1 of 3
EGKSLRYYYAN | GKNNRPS | SSMDSSGFFVF | 190 nM | 3 of 3
EGDSLRMYYAN | GKNNRPR | SSRDSSGFQVC | 23 µM | 2 of 3
EGDSARYYYAN | GSNNRPS | SSRDSSGFSVF | 3.0 µM | 3 of 3
EGDSLRYYYAP | CKNNRPS | SSRDSIGFQVF | 130 µM | 1 of 3
EGDSLRYYYAN | FKNNRPS | ESRDSSGFQVF | not detected | 0 of 3
EMDSLRYRYAN | DKNNRPS | SSRDSSGFQVF | 28 nM | 3 of 3
ESDSLRYYYAN | GKNNCPS | SSRDSSGFQVI | 4.1 µM | 1 of 3
EGDSPRYYCAT | GKNNRPS | SSRDSSGFQVF | 35 µM | 1 of 3
EPDSLRYYYAN | GKNNRPS | SSGDISGFQVF | 9.9 µM | 3 of 3
EGDSIRYCYHN | GKNNRPS | SSRDSSGFQVF | 820 nM | 3 of 3
EGDSLRYYYAN | GKNTRPS | SSQDISGFQVF | 11 µM | 2 of 3
EGDSLRYAYAN | GKNNHPS | SSRDSCGFQVF | 960 nM | 2 of 3
ECDSLRYDYAN | GKNNRPS | SSRDSSGFQVF | 380 nM | 3 of 3
EGDSLRYEYAN | GKNNRPS | SSRVSSGFRVF | 660 nM | 3 of 3
EGESLRYYYAN | EKNNRPS | SDRDSSGFQVF | 3.5 µM | 3 of 3
EGDSLRYYYAN | GKNNRPS | SSRDLSGMQLF | 300 µM | 1 of 3
EGASLRLYYAN | GKHNRPS | SSRDSSGFQVF | 2.0 µM | 3 of 3
FGDSLRYDYAN | GKNNRPE | SSRDSSGFQVF | 28 nM | 3 of 3
EGDSLGYYYAP | GKNNRPS | SSRDPSGFQVF | 25 µM | 1 of 3
IGLSLRYYYAN | GVNNRPS | SSRDSSGFQVF | 78 µM | 3 of 3
EGDSGRYYYAN | GKMNRPS | SSRDSSLFQVF | 9.5 µM | 2 of 3
EGDSLYYYEAN | GKNNRPS | SSRDSSGTQVF | 38 nM | 3 of 3
EGDSLRYYYAN | GKNQQPY | SSRDSSGFQVF | 530 nM | 3 of 3
ELDSKRYYYAN | GKNNRPS | SSRDSSGFQVF | 1.5 µM | 2 of 3
EVDSLRYYYAV | GKNNRPS | DSRDSSGFQVF | 2.2 µM | 1 of 3
EGDSLRYGYAN | APNNRPS | SSRDSSGFQVF | 110 nM | 3 of 3
EGDSHRYYAAN | GKNNRPS | VSRDSSGFQVF | 18 µM | 1 of 3
WGESLRYYYAN | GKNNRPS | SSTDSSGFQVF | 5.5 µM | 2 of 3
EGDELRYYYAR | GKNNRPS | SSRDRSGFQVF | 450 nM | 3 of 3
EGDSLRYYTAN | VHNNRPS | SSRDSSGFQVF | 160 µM | 1 of 3
EGDSLRYYDAN | GKNNRKS | SSRDSSGFQVQ | 990 nM | 3 of 3
EGDSLRYYYAN | GKWNRPS | FSRDSSGEQVF | 26 µM | 1 of 3
EGDSLRYYMAN | GKNNRPC | SSRDSSGFLVF | 1.1 µM | 3 of 3
EGDSLRYYWAN | GKNNRNS | SSRDSAGFQVF | not detected | 0 of 3
EGWSLRYYYAN | GKNNRPS | RSRHSSGFQVF | 18 µM | 2 of 3
EQDSLRYYYAN | WKNNRPS | SSRDSSGFQVF | 9.1 µM | 2 of 3
EGDSLRDYYAN | GKNNRPQ | SSRDSSGFQWF | 570 nM | 3 of 3
EWDSLRYYYAS | GKNNRPS | SSRDSSNFQVF | 12 µM | 2 of 3
ETDSLRYYYAN | GKNNRPS | SSRFSSGFQFF | not detected | 0 of 3
EGDSLRYYWAA | GKNNRPS | SDRDSSGFQVF | not detected | 0 of 3
EVDSLRYYYAN | CKNNRYS | SSRDSSGFQVF | 20 µM | 1 of 3
EGDSLRDYYAN | GKNNRPS | SSGDFSGFQVF | 50 nM | 3 of 3
EGDSLRYYYAN | FKNNRPS | SSRDSSCFQSF | 17 µM | 1 of 3
EGDSLRYYYAN | GKWNRPS | SSYDSSGFHVF | 98 µM | 2 of 3
EGDSLRYYYAN | GKNNRPG | SSYDSSYFQVF | 600 nM | 3 of 3

A selection of 5 entries from above:

CDR-L1 | CDR-L2 | CDR-L3 | Kd | seen in
EPDSLRYYYAN | GKNNRPS | SSGDISGFQVF | 9.9 µM | 3 of 3
EGDSLRYYYAN | GKNQQPY | SSRDSSGFQVF | 530 nM | 3 of 3
EGDSLRYYWAN | GKNNRNS | SSRDSAGFQVF | not detected | 0 of 3
ESDSLRYYYAN | GKNNCPS | SSRDSSGFQVI | 4.1 µM | 1 of 3
EQDSLRYYYAN | WKNNRPS | SSRDSSGFQVF | 9.1 µM | 2 of 3